Source: ChEMBL document CHEMBL1136888, “Design, synthesis, and biological evaluation of novel diarylalkyl amides as TRPV1 antagonists” (Bioorg Med Chem, 2009)

The chains behind the UniProt entries cited, without tags or fusion partners.
UniProt O35433, whole entry: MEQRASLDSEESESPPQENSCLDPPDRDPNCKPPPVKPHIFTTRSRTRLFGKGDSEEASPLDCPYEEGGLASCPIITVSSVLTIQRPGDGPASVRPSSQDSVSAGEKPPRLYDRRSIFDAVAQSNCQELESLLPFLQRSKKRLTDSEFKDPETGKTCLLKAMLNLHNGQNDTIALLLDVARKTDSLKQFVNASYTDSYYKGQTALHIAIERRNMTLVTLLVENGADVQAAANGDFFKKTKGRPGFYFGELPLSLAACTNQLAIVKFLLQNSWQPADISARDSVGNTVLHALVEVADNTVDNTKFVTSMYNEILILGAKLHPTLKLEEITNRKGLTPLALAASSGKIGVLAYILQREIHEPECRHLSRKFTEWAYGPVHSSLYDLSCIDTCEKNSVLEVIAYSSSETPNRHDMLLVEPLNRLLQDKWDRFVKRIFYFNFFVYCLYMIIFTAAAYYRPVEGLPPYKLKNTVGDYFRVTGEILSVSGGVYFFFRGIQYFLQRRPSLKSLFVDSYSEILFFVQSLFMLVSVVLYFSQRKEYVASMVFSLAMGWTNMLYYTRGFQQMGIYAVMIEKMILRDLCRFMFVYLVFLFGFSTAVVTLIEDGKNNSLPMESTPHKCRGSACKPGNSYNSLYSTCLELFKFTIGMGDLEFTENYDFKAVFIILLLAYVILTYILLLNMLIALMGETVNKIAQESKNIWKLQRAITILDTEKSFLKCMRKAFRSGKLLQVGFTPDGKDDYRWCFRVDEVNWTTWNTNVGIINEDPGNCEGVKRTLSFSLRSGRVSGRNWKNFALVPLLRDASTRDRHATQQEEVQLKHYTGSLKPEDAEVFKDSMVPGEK

Target: Transient receptor potential cation channel subfamily V member 1 (Rattus norvegicus, UniProt O35433)
Assay: Antagonist activity at TRPV1 in Sprague-Dawley rat DRG neuron assessed as reduction of capsaicin-stimulated 45Ca2+ uptake
Type: functional
Method in brief: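 Neonatal Sprague-Dawley rat DRG neurons (all spinal levels) dissociated with collagenase/trypsin and cultured 3 days with C6 glioma-conditioned medium. Washed in HEPES (10 mM, pH 7.4) Ca/Mg-free HBSS. Exposed to 45Ca2+ plus 0.5 µM capsaicin with compound for 10 min at room temperature. Cells washed, SDS-lysed, scintillation counted.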

Question: Which IC50 does the source give for `CC(C)(C)c1ccc(/C=C/C(=O)NCc2ccc(NS(C)(=O)=O)c(F)c2)cc1` here?
Answer: 490 nM
